Experimental data reported in patent publication US10765664B2, “Treatment of infectious diseases” (CHILDREN'S MEDICAL CENTER CORPORATION, priority 2015, dated 2020).

Test system: IFITM3
Experiment: IFITM3 mRNA in THP-1 cells stimulated with cytokines or TLR agonists, real time PCR
Assay type: cell-based, human

B1: IFN-β: recombinant IFN-β, positive control for IFITM3 induction (protein, UniProt P01574 22-187, looked up)
Interferon beta: MSYNLLGFLQRSSNFQCQKLLWQLNGRLEYCLKDRMNFDIPEEIKQLQQFQKEDAALTIYEMLQNIFAIFRQDSSSTGWNETIVENLLANVYHQINHLKTVLEEKLEKEDFTRGKLMSSLHLKRYYGRILHYLKAKEYSHCAWTIVRVEILRNFYFINRLTGYLRN
increase in IFITM3 mRNA (24 hours): ~6 fold
increase in IFITM3 mRNA (48 hours): ~12 fold
